CycPeptMPDB entries from one study

Data: CycPeptMPDB; original report Kelly et al. 2021, doi:10.1021/jacs.0c06115.

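Conditions beyond the assay type are not listed; see the original paper. Other peptides of the study may be missing here. Entries at the database's floor value (log10 P of -10) are not listed.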

PAMPA measures passive passage through an artificial lipid membrane. Values are log10 P with P in cm/s, so -5 is more permeable than -7.

{"smiles": "CC(=O)N1CCC[C@H]1C(=O)N(C)[C@@H](CC(C)C)C(=O)N[C@@H]1C(=O)N[C@@H](CC(C)C)C(=O)N(C)[C@@H](CC(C)C)C(=O)N[C@@H](CC(C)C)C(=O)N(C)[C@H](C)C(=O)N[C@H](CC(C)C)C(=O)N2CCC[C@@H]2C(=O)O[C@@H]1C", "PAMPA (log10 cm/s)": "-5.49"}
{"smiles": "CC(=O)N1CCC[C@@H]1C(=O)N(C)[C@@H](CC(C)C)C(=O)N[C@@H]1C(=O)N(C)[C@@H](CC(C)C)C(=O)N[C@@H](CC(C)C)C(=O)N(C)[C@@H](CC(C)C)C(=O)N[C@@H](C)C(=O)N[C@@H](CC(C)C)C(=O)N2CCC[C@H]2C(=O)O[C@@H]1C", "PAMPA (log10 cm/s)": "-5.47"}
{"smiles": "CC(=O)N1CCC[C@H]1C(=O)N(C)[C@H](CC(C)C)C(=O)N[C@@H]1C(=O)N(C)[C@@H](CC(C)C)C(=O)N(C)[C@H](CC(C)C)C(=O)N(C)[C@H](CC(C)C)C(=O)N[C@@H](C)C(=O)N[C@@H](CC(C)C)C(=O)N2CCC[C@@H]2C(=O)O[C@@H]1C", "PAMPA (log10 cm/s)": "-5.69"}
{"smiles": "CC(=O)N1CCC[C@@H]1C(=O)N(C)[C@@H](CC(C)C)C(=O)N[C@@H]1C(=O)N(C)[C@H](CC(C)C)C(=O)N[C@@H](CC(C)C)C(=O)N[C@H](CC(C)C)C(=O)N(C)[C@H](C)C(=O)N[C@H](CC(C)C)C(=O)N2CCC[C@H]2C(=O)O[C@@H]1C", "PAMPA (log10 cm/s)": "-5.90"}
{"smiles": "CC(=O)N1CCC[C@@H]1C(=O)N(C)[C@H](CC(C)C)C(=O)N[C@@H]1C(=O)N(C)[C@@H](CC(C)C)C(=O)N[C@H](CC(C)C)C(=O)N(C)[C@@H](CC(C)C)C(=O)N(C)[C@@H](C)C(=O)N[C@@H](CC(C)C)C(=O)N2CCC[C@@H]2C(=O)O[C@@H]1C", "PAMPA (log10 cm/s)": "-5.45"}
{"smiles": "CC(=O)N1CCC[C@@H]1C(=O)N(C)[C@@H](CC(C)C)C(=O)N[C@@H]1C(=O)N[C@@H](CC(C)C)C(=O)N[C@H](CC(C)C)C(=O)N[C@H](CC(C)C)C(=O)N[C@H](C)C(=O)N[C@@H](CC(C)C)C(=O)N2CCC[C@H]2C(=O)O[C@@H]1C", "PAMPA (log10 cm/s)": "-7.00"}
{"smiles": "CC(=O)N1CCC[C@@H]1C(=O)N(C)[C@H](CC(C)C)C(=O)N[C@@H]1C(=O)N[C@@H](CC(C)C)C(=O)N[C@@H](CC(C)C)C(=O)N(C)[C@@H](CC(C)C)C(=O)N(C)[C@H](C)C(=O)N[C@H](CC(C)C)C(=O)N2CCC[C@H]2C(=O)O[C@@H]1C", "PAMPA (log10 cm/s)": "-6.42"}
{"smiles": "CC(=O)N1CCC[C@@H]1C(=O)N(C)[C@H](CC(C)C)C(=O)N[C@@H]1C(=O)N[C@H](CC(C)C)C(=O)N[C@@H](CC(C)C)C(=O)N(C)[C@H](CC(C)C)C(=O)N[C@H](C)C(=O)N[C@H](CC(C)C)C(=O)N2CCC[C@H]2C(=O)O[C@@H]1C", "PAMPA (log10 cm/s)": "-6.01"}
{"smiles": "CC(=O)N1CCC[C@@H]1C(=O)N(C)[C@@H](CC(C)C)C(=O)N[C@@H]1C(=O)N[C@H](CC(C)C)C(=O)N(C)[C@@H](CC(C)C)C(=O)N[C@@H](CC(C)C)C(=O)N(C)[C@@H](C)C(=O)N[C@H](CC(C)C)C(=O)N2CCC[C@H]2C(=O)O[C@@H]1C", "PAMPA (log10 cm/s)": "-5.43"}
{"smiles": "CC(=O)N1CCC[C@H]1C(=O)N(C)[C@@H](CC(C)C)C(=O)N[C@@H]1C(=O)N[C@@H](CC(C)C)C(=O)N(C)[C@@H](CC(C)C)C(=O)N(C)[C@H](CC(C)C)C(=O)N(C)[C@@H](C)C(=O)N[C@H](CC(C)C)C(=O)N2CCC[C@@H]2C(=O)O[C@@H]1C", "PAMPA (log10 cm/s)": "-6.10"}
{"smiles": "CC(=O)N1CCC[C@@H]1C(=O)N(C)[C@H](CC(C)C)C(=O)N[C@@H]1C(=O)N[C@H](CC(C)C)C(=O)N(C)[C@H](CC(C)C)C(=O)N[C@H](CC(C)C)C(=O)N(C)[C@@H](C)C(=O)N[C@H](CC(C)C)C(=O)N2CCC[C@@H]2C(=O)O[C@@H]1C", "PAMPA (log10 cm/s)": "-5.94"}
{"smiles": "CC(=O)N1CCC[C@H]1C(=O)N(C)[C@H](CC(C)C)C(=O)N[C@@H]1C(=O)N[C@@H](CC(C)C)C(=O)N(C)[C@@H](CC(C)C)C(=O)N(C)[C@H](CC(C)C)C(=O)N(C)[C@H](C)C(=O)N[C@@H](CC(C)C)C(=O)N2CCC[C@H]2C(=O)O[C@@H]1C", "PAMPA (log10 cm/s)": "-5.64"}
{"smiles": "CC(=O)N1CCC[C@H]1C(=O)N[C@@H]1C(=O)N[C@H](CC(C)C)C(=O)N[C@@H](CC(C)C)C(=O)N[C@@H](CC(C)C)C(=O)N[C@@H](CC(C)C)C(=O)N[C@H](C)C(=O)N[C@@H](CC(C)C)C(=O)N2CCC[C@@H]2C(=O)O[C@@H]1C", "PAMPA (log10 cm/s)": "-6.57"}
{"smiles": "CC(=O)N1CCC[C@H]1C(=O)N[C@@H]1C(=O)N[C@H](CC(C)C)C(=O)N(C)[C@@H](CC(C)C)C(=O)N(C)[C@@H](CC(C)C)C(=O)N(C)[C@H](CC(C)C)C(=O)N(C)[C@@H](C)C(=O)N[C@@H](CC(C)C)C(=O)N2CCC[C@@H]2C(=O)O[C@@H]1C", "PAMPA (log10 cm/s)": "-5.12"}
{"smiles": "CC(=O)N1CCC[C@H]1C(=O)N[C@@H]1C(=O)N[C@H](CC(C)C)C(=O)N[C@@H](CC(C)C)C(=O)N[C@H](CC(C)C)C(=O)N[C@@H](CC(C)C)C(=O)N(C)[C@H](C)C(=O)N[C@@H](CC(C)C)C(=O)N2CCC[C@@H]2C(=O)O[C@@H]1C", "PAMPA (log10 cm/s)": "-6.40"}
{"smiles": "CC(=O)N1CCC[C@@H]1C(=O)N(C)[C@H](CC(C)C)C(=O)N[C@@H]1C(=O)N(C)[C@H](CC(C)C)C(=O)N(C)[C@H](CC(C)C)C(=O)N(C)[C@@H](CC(C)C)C(=O)N(C)[C@@H](C)C(=O)N[C@@H](CC(C)C)C(=O)N2CCC[C@H]2C(=O)O[C@@H]1C", "PAMPA (log10 cm/s)": "-5.72"}
{"smiles": "CC(=O)N1CCC[C@@H]1C(=O)N(C)[C@@H](CC(C)C)C(=O)N[C@@H]1C(=O)N(C)[C@H](CC(C)C)C(=O)N(C)[C@@H](CC(C)C)C(=O)N(C)[C@H](CC(C)C)C(=O)N(C)[C@H](C)C(=O)N[C@H](CC(C)C)C(=O)N2CCC[C@H]2C(=O)O[C@@H]1C", "PAMPA (log10 cm/s)": "-5.28"}
{"smiles": "CC(=O)N1CCC[C@@H]1C(=O)N(C)[C@H](CC(C)C)C(=O)N[C@@H]1C(=O)N(C)[C@@H](CC(C)C)C(=O)N(C)[C@H](CC(C)C)C(=O)N(C)[C@@H](CC(C)C)C(=O)N(C)[C@H](C)C(=O)N[C@H](CC(C)C)C(=O)N2CCC[C@H]2C(=O)O[C@@H]1C", "PAMPA (log10 cm/s)": "-5.49"}

2 of these entries, quoted again:

{"smiles": "CC(=O)N1CCC[C@@H]1C(=O)N(C)[C@H](CC(C)C)C(=O)N[C@@H]1C(=O)N[C@@H](CC(C)C)C(=O)N[C@@H](CC(C)C)C(=O)N(C)[C@@H](CC(C)C)C(=O)N(C)[C@H](C)C(=O)N[C@H](CC(C)C)C(=O)N2CCC[C@H]2C(=O)O[C@@H]1C", "PAMPA (log10 cm/s)": "-6.42"}
{"smiles": "CC(=O)N1CCC[C@@H]1C(=O)N(C)[C@@H](CC(C)C)C(=O)N[C@@H]1C(=O)N(C)[C@H](CC(C)C)C(=O)N(C)[C@@H](CC(C)C)C(=O)N(C)[C@H](CC(C)C)C(=O)N(C)[C@H](C)C(=O)N[C@H](CC(C)C)C(=O)N2CCC[C@H]2C(=O)O[C@@H]1C", "PAMPA (log10 cm/s)": "-5.28"}